# Source: PubChem BioAssay AID1671188 (National Center for Advancing Translational Sciences (NCATS), 2021)
# Amino acid sequences for entries named in this document (tags omitted).
# UniProt Q8TD30, whole entry: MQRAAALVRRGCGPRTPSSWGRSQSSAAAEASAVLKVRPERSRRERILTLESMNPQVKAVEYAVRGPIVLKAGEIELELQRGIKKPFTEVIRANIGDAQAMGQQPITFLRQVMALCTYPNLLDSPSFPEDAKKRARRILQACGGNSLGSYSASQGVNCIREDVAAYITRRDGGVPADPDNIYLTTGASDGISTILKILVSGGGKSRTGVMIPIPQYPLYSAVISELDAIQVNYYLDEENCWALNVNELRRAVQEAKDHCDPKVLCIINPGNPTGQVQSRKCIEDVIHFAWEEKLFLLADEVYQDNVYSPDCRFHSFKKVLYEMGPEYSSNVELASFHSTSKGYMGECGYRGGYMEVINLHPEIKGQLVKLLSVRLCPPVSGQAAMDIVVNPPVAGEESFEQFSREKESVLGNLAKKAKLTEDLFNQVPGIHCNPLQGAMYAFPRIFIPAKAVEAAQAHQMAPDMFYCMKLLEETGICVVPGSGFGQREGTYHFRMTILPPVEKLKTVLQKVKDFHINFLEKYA
# Only a part is listed here, and it is no random draw. Inconclusive results are not listed. Some structures show a salt or complex split into parts, the way the source records it. Activity calls are given as the source filed them. Calls follow the shape of the dose curve; as a rule, active = well fitted inhibition curve with a large enough effect; inconclusive = small, poorly fitted or top-dose-only effect; inactive = flat fitted curve, though single readings scatter.
# Target: Alanine aminotransferase 2 (Homo sapiens) (UniProt Q8TD30)
# Assay: Primary qHTS assay for inhibitors of Glutamate pyruvate transaminase 2 (GPT2); also: nearly all actives have a fitted effect of over 60% in size
# Conditions: Recombinant GPT2, coupled pyruvate oxidase/HRP Amplex Red fluorescence; series mostly up to 88.5 µM; activity change, negative = inhibition: at the top concentration
# Procedure: Assay Provider: Zhenghe John Wang Ph.D.
# Case Western Reserve University, Cleveland OH
# Glutamate pyruvate transaminase 2 (GPT2) catalyzes the reversible transamination of glutamate and pyruvate to provide a-ketoglutarate and alanine. We have optimized an assay for GPT2 enzymatic activity that couples pyruvate formation to detection of fluorescence using an established pyruvate oxidase/horseradish peroxidase / Amplex Red system.
# Screening conditions were 250uM a-KG, 2mM L-alanine, and 10ng/uL GPT2 in […] of solution; 10uL of Amplex reaction mix (outlined below) were added so that final concentrations of Amplex reagents in 50uL were 0.2mM ThPP, 0.2U/mL PO and HRP, and 50uM Amplex.
# NOTE: The volume of GPT2 in the system depends on the activity of it. The activity is different every batch. You need to test the activity before the assay. For full plate assay with automation, plate 20uL of GPT2 buffer to pin into, then add 10uL of GPT2 dilution followed immediately by 10uL of substrate dilution. 2 Columns of the plate were devoted to GPT2 buffer ([…] PH7.5, 0.0001% Tween) + 50uM AOA (known GPT2 inhibitor) to serve as a positive control. Complete the assay as normal. Amplex-red buffer: […] PH7.5, 1 mM EDTA, 1 mM MgCl2.
# 1. Combine a-KG and L-alanine at desired concentrations and incubate for at least 10 minutes at 37C. Stocks of L-alanine and a-KG are diluted in distilled water. However, the stocks were diluted in GPT2 buffer for the assay.
# 2. Prepare GPT2 dilution at the desired concentration in GPT2 buffer.
# 3. Plate 40uL of GPT2 dilution with 40uL of substrate dilution and let incubate for 30 minutes at room temperature.
# 4. Add 20uL of Amplex reaction mix prepared as follows: 1.5uL 200U/mL Horseradish Peroxidase, 200mM Thiamine Pyrophosphate, 200U/mL Pyruvate Oxidase; 7.5uL 10mM Amplex Red; 288uL Amplex Buffer.
# 5. Incubate for 30 minutes at room temperature in the dark, then image using AM_Amplex_Fluorescence on plate reader nearest the window.
# % is scaled to controls: 0 for no effect and ±100 for the full control effect; potency is read from the fitted curve at half-maximal effect.
SMILES,"activity change, negative = inhibition",outcome,Potency
OCCSCCO,inactive: 0.574% [at 57.7 µM],–,–
CNCc1cccc(C)n1.OOC#COO,–,inactive [at 88.5 µM],–
CC1=C2[N-][C@@](C)([C@@H]3N=C(C(C)=C4N=C(C=C5N=C1[C@@](C)(CC(N)=O)[C@H]5CCC(N)=O)C(C)(C)[C@H]4CCC(N)=O)[C@](C)(CCC(=O)NC[C@@H](C)OP(=O)([O-])O[C@H]1[C@@H](O)[C@@H](n4cnc5cc(C)c(C)cc54)O[C@H]1CO)[C@H]3CC(N)=O)[C@@](C)(CC(N)=O)[C@@H]2CCC(N)=O.[C-]#N.[Co+3],–,–,active: 1330 nM
Cc1cccc([N+](=O)[O-])c1[N+](=O)[O-],inactive: 1.49%,–,–
CN(C(=O)Cc1ccccc1)[C@H]1CC[C@@]2(CCCO2)C[C@@H]1N1CCCC1,–,inactive,–
CCn1c(=O)n([C@@H]2CCN(CC3CCCCCCC3)C[C@@H]2CO)c2ccccc21,–,inactive,–
O=[N+]([O-])c1cccc([N+](=O)[O-])c1,inactive: 3.8%,–,–
NC(=O)Nc1ccc([As](=O)(O)O)cc1,–,inactive,–
CCn1c(=O)n([C@@H]2CCN(CC3CCCCCCC3)C[C@H]2CO)c2ccccc21,–,inactive,–
CN(C(=O)Cc1ccc(Cl)c(Cl)c1)[C@@H]1CC[C@]2(CCCO2)C[C@H]1N1CCCC1,–,inactive,–
C/C1=C2N=C(/C=C3N=C(/C(C)=C4\N=C(C(CC(N)=O)C4(C)CCC(=O)NCC(C)OP(=O)([O-])OC4C(CO)OC(n5cnc6cc(C)c(C)cc65)C4O)C4(C)N=C1C(CCC(N)=O)C4(C)CC(N)=O)C(CCC(N)=O)C\3(C)C)C(CCC(N)=O)C/2(C)CC(N)=O.[C-]#N.[Co] (stereo unspecified),–,–,active: 1000 nM
